From patent publication US7041292B1, “Treating prostate cancer with anti-ErbB2 antibodies” (Genentech, Inc., priority 1999, dated 2006) come the findings set out here.

The subject of assay [1] is panel of human tumor cell lines. Kind of assay: Inhibition of specific 125I-labeled rHRGβ1 binding to a panel of human tumor cell lines. The note with it: all cell lines with the exception of MDA-MB-468; FIG. 3.
Assay [2] relates to LNCaP human prostate cancer xenograft. The experiment in a line: Androgen dependent LNCaP prostate cancer xenograft. In kind it is in vivo, mice. As to conditions: end of the treatment period, n=6.
The subject of assay [3] is CWR22 human prostate cancer xenograft. Kind of assay: Androgen dependent CWR22 prostate cancer xenograft. In kind it is in vivo, mice.
For assay [4], the system named is CWRSA6 human prostate cancer xenograft. The experiment in a line: Androgen independent CWRSA6 prostate cancer xenograft. In kind it is in vivo, mice.
In assay [5] the test system is CWR22R human prostate cancer xenograft. The experiment in a line: Androgen independent CWR22R prostate cancer xenograft. In kind it is in vivo, mice.

Entries after “also recorded” stand apart in the source; their conditions may differ.

As to “2C4: murine monoclonal antibody binding the extracellular domain of ErbB2, blocks ligand activation; ATCC HB12697 [Mutant 2C4]”, the “inhibition of 125I-labeled rHRGβ1 binding” value in assay [1] is listed as “significantly inhibited”.
Regarding “HERCEPTIN®: recombinant humanized version of the murine anti-ErbB2 antibody 4D5”, the mean tumor volume in assay [2] is 163 mm^3; in assay [3] (CWR22, end of the treatment period, n=6) it was 520 mm^3. In addition, the growth inhibition in assay [3] (CWR22, versus control, HERCEPTIN® 20 mg/kg i.p. twice weekly) is reported as 68%. For the same substance, the “effect on tumor growth / clinical activity” value in assay [3] (CWR22 androgen dependent, antibody 20 mg/kg twice weekly) was “has clinical activity”; in assay [4], “No effect; also recorded: little or no clinical activity”; in assay [5], “No effect; also recorded: little or no clinical activity”.
